Earlier results, collected in patent US20020151467A1, “Methods and compositions for oral insulin delivery” (priority 2000, published 2002).

Conditions: oral, under the best conditions (Damge, 1997); cited from earlier work

insulin
fraction of orally administered insulin absorbed: Less than 0.5%
